Values of other authors, collected in US11525155B2, “Stabilisation of biological samples” (QIAGEN GmbH, priority 2013, dated 2022).

Legend:
cells = details: even at extremely high concentrations; cited from earlier work
calpain II = target: T1, calpain II (Homo sapiens, UniProt P17655); details: cited from earlier work
T1 sequence (P17655 1-700): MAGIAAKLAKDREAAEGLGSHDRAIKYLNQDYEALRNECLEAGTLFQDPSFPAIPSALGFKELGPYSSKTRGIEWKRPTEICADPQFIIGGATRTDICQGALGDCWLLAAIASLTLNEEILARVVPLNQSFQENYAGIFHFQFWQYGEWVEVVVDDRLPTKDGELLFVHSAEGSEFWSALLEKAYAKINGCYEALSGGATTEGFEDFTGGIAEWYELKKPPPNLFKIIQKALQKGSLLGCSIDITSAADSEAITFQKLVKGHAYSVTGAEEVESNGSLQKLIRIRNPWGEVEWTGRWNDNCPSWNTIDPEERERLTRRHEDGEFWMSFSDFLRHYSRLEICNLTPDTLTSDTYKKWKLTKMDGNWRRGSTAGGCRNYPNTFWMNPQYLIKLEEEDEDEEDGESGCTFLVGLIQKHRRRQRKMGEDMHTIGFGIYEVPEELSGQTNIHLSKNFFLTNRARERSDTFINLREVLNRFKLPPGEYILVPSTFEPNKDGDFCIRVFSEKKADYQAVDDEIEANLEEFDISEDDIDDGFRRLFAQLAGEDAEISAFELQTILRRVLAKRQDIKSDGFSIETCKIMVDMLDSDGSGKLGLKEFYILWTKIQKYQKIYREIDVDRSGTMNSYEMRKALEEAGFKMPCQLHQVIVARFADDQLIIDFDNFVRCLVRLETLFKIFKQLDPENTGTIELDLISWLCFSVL
T1 sequence (P04632 1-268 partner): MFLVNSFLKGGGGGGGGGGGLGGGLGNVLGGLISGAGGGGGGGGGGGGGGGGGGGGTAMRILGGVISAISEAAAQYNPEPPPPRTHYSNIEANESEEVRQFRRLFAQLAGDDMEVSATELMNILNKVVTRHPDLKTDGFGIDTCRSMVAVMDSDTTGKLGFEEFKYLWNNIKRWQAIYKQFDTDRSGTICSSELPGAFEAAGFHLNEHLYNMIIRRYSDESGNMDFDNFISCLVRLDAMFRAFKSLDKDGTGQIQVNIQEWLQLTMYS

Substance	toxicity to cells (cells)	Ki (calpain II)
Quinoline-Val-Asp-CH2-OPH [Q-VD-OPh]	not toxic to cells	
Z-Val-Phe-CHO [Calpain Inhibitor III]		8 nM
